# Patent publication EP1816136A1, “GPR7-SELECTIVE LIGAND AND USE THEREOF” (BANYU PHARMACEUTICAL CO., LTD., priority 2004, dated 2006)
# The chains behind the UniProt entries cited, without tags or fusion partners. Where a name states a change or a piece, a line headed by the entry shows the natural chain unless it says otherwise.
# UniProt P48146: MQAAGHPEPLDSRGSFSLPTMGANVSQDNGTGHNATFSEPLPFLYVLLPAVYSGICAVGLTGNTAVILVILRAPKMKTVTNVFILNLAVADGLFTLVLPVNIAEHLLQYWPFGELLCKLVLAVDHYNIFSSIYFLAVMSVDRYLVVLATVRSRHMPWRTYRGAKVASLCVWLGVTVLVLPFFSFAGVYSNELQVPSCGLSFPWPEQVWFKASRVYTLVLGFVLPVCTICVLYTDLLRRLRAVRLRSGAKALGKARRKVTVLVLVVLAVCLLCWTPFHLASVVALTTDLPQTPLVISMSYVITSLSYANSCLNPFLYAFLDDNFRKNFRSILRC
# Legend:
# GPR7 = molecular target: T1, GPR7 (Homo sapiens, UniProt P48145); test: Binding inhibition test with [125I]-[Phe2]-hNPW(1-23), GPR7 membrane preparation; conditions: Table 2, membrane preparation of cells expressing GPR7
# T1 construct: expressed in transfected cells; host or cells: HEK293/CRE-BLA cells (AURORA), expression vector pIRES-hygro (Clontech)
# T1 sequence (P48145 1-328): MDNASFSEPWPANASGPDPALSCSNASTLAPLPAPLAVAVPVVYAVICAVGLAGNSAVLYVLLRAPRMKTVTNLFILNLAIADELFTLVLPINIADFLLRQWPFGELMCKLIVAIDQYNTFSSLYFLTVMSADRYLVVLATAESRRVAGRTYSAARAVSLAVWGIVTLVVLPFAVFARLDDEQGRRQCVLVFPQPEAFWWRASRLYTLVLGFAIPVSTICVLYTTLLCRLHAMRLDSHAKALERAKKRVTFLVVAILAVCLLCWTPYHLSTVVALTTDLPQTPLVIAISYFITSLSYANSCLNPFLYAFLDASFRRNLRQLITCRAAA
# Experimental: (§1) One nmol of [Phe2]-hNPW(1-23) (prepared in Synthesis Example 19) was dissolved in 5 µL of anhydrous DMSO, and the solution was mixed with 0.1M nickel chloride. Then, the mixture was mixed with 10 µL of a 0.00 1 % aqueous solution of hydrogen peroxide, 10 µL of an enzyme solution (lactoperoxidase (Sigma) adjusted to 10 µg/mL with a 0.1M HEPES buffer solution), and 37 Mbq/10 µL of Iodine-125 (Amersham), whereafter the resulting mixture was reacted for 60 minutes at room temperature. The reaction was terminated with the addition of 10 µL of 1% sodium azide, and then a radiolabeled peptide fraction was collected by a PD-10 gel filtration column (Amersham) to obtain [^125I]-[Phe2]-hNPW(1-23).
# (§2) A cDNA sequence coding for human GPR7 or GPR8 [see Genomics, vol. 28, p. 84 (1995)] was amplified by the PCR method, and cloned using the expression vector pIRES-hygro (Clontech). […]
# (§3) A membrane preparation prepared from the cells expressing GPR7 or GPR8 was incubated for 1 hour at room temperature in an assay buffer solution (25 mM Tris buffer solution, 150 mM NaCl, pH 7.4) together with a test compound and 28,000 cpm of [^125I]-[Phe2]-hNPW(1-23). […] After washing with 25 mM Tris buffer solution (pH 7.4), radioactivity on the glass filter was measured. […]
# GPR8 = molecular target: T2, GPR8 (Homo sapiens, UniProt P48146); test: Binding inhibition test with [125I]-[Phe2]-hNPW(1-23), GPR8 membrane preparation; conditions: Table 2, membrane preparation of cells expressing GPR8
# T2 construct: expressed in transfected cells; host or cells: HEK293/CRE-BLA cells (AURORA), expression vector pIRES-hygro (Clontech)
# Experimental: as §1, §2, §3
smiles,measurement,setting,value
"CSCC[C@H](NC(=O)[C@H](CC(C)C)NC(=O)[C@H](CC(C)C)NC(=O)CNC(=O)[C@H](C)NC(=O)[C@H](C)NC(=O)[C@H](CCCNC(=N)N)NC(=O)CNC(=O)[C@@H](NC(=O)[C@@H](NC(=O)[C@H](Cc1cnc[nH]1)NC(=O)[C@H](Cc1ccc(O)cc1)NC(=O)[C@H](CCCNC(=N)N)NC(=O)[C@@H]1CCCN1C(=O)[C@H](CO)NC(=O)[C@H](C)NC(=O)[C@@H](NC(=O)[C@H](Cc1cnc[nH]1)NC(=O)[C@H](CCCCN)NC(=O)[C@H](Cc1ccc(O)cc1)NC(=O)[C@@H](N)Cc1c[nH]c2ccccc12)C(C)C)[C@@H](C)O)C(C)C)C(=O)NCC(=O)N[C@@H](CC(C)C)C(=O)N[C@@H](CCCNC(=N)N)C(=O)N[C@@H](CCCNC(=N)N)C(=O)N[C@@H](CO)C(=O)N1CCC[C@H]1C(=O)N[C@@H](Cc1ccc(O)cc1)C(=O)N[C@@H](CC(C)C)C(=O)N[C@@H](Cc1c[nH]c2ccccc12)C(=O)O [Synthesis Example 1, reference compound]",IC50,GPR7,0.36 nM
same,IC50,GPR8,0.043 nM
